System: rat model of essential tremor
Assay: Harmaline rat model of essential tremor, tremor plate: motion power percentage, tremor index, number of tremors, time in tremor, tremor length (Example 4)
Format: in vivo
Design: key: ns = not significant; *, **, ***, **** = statistical significance at p < 0.05, 0.01, 0.001, 0.0001 respectively; *, **, ***, **** = statistical significance at p < 0.05, 0.01, 0.001, 0.0001 respectively; *, **, ***, **** = statistical significance at p < 0.05, 0.01, 0.001, 0.0001 respectively; *, **, ***, **** = statistical significance at p < 0.05, 0.01, 0.001, 0.0001 respectively
Conditions: I.P.
Excerpt: The following study was designed to assess the drug substance (DS) efficacy in the rat model of essential tremor. Synthetic CBD (sCBD I.P.) and DS I.P. and DS. P.O and compared observing tremor score, motion power percentage (MPP), tremor index (TI), number of tremors, total time spent in tremor, and average tremor length.
Animals (254 male Sprague Dawley rats from Charles River UK, approximately aged 6-7 weeks, weight range 222-361 g) were housed in groups of 2-4, in standard caging with free access to food and water on a 12 h/12 h light/dark cycle from arrival (lights on at 7:00 AM) and were habituated to the tremor plate apparatus the day before the day of the experiment (2×5 min sessions 20 minutes apart). On the test day, the following treatments were administered: • At T=−100 min • 6, 12, 20 or 30 mg/kg Drug Substance (DS of Example 1) or vehicle via p.o. • 91.11 mg/kg sCBD via i.p. • 100 mg/kg Drug Substance (DS of Example 1) via i.p. • At T-=40 min: • Vehicle only, 9.11 mg/kg, 27.33 mg/kg, or 54.67 mg/kg sCBD via i.p. • Vehicle only, 10 mg/kg, 30 mg/kg, or 60 mg/kg Drub Substance (DS of Example 1) via i.p. • Propranolol 20 mg/kg was given at T=−30 min and Harmaline was given at T=0 for all studies.
The results are summarized in Tables J-M. All comparisons were made to the harmaline+vehicle group within each study.

Question: How did the “Tremor Index, significance vs harmaline + vehicle” value (“Tremor Index, significance” below) (dose 9.1 mg/kg, 20 min) turn out when C=C(C)[C@@H]1CCC(C)=C[C@H]1c1c(O)cc(CCCCC)cc1O [sCBD, 2-[(1R,6R)-3-Methyl-6-(1-methylethenyl)-2-cyclohexen-1-yl]-5-pentyl-1,3-benzenediol] was run?
Answer: ns

Question: What about the “Tremor Index, significance” value (dose 9.1 mg/kg, 40 min) of the same molecule?
Answer: ns

Question: And the “Tremor Index, significance” value (dose 9.1 mg/kg, 60 min)?
Answer: ns

Question: What about the “Tremor Index, significance” value (dose 27.3 mg/kg, 20 min) of the same molecule?
Answer: ns

Question: What about the “Tremor Index, significance” value (dose 27.3 mg/kg, 40 min) of the same molecule?
Answer: ns

Question: And the “Tremor Index, significance” value (dose 27.3 mg/kg, 60 min)?
Answer: ns

Question: What about the “Tremor Index, significance” value (dose 54.7 mg/kg, 20 min) of the same molecule?
Answer: ns

Question: And the “Tremor Index, significance” value (dose 54.7 mg/kg, 40 min)?
Answer: ns

Question: What about the “Tremor Index, significance” value (dose 54.7 mg/kg, 60 min) of the same molecule?
Answer: ns

Question: What about the “Tremor Index, significance” value (dose 91.1 mg/kg, 20 min) of the same molecule?
Answer: ns

Question: What about the “Tremor Index, significance” value (dose 91.1 mg/kg, 40 min) of the same molecule?
Answer: ns

Question: What about the “Tremor Index, significance” value (dose 91.1 mg/kg, 60 min) of the same molecule?
Answer: * (*, **, ***, **** = statistical significance at p < 0.05, 0.01, 0.001, 0.0001 respectively)
